# Experimental data published in PubChem BioAssay AID1224865 (Sanford-Burnham Center for Chemical Genomics, 2016).
# Protein sequences, listed by entry. Tags and fused reporters are not part of them.
# UniProt P41235, whole entry: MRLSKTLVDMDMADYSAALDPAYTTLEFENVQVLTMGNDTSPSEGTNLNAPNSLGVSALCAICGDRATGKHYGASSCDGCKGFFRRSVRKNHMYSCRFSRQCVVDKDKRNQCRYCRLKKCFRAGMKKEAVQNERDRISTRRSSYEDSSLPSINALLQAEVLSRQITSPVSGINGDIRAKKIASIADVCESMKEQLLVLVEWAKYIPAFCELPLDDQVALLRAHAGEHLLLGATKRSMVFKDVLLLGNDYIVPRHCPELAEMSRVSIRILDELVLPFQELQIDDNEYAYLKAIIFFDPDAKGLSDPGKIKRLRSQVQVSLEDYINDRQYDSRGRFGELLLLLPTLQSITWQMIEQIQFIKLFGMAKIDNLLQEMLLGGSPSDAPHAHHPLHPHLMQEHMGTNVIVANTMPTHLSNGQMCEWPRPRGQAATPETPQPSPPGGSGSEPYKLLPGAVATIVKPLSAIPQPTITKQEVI
# The list shows a part of the results, in another mix than the full data. Some of these compounds have results that are not shown, active ones among them. Activity calls are given as the source filed them. Cut-off read from the data, not from the text of the source: active = activity change above about 30% (passing the limit was not always enough); inactive = the rest.
# Target: Hepatocyte nuclear factor 4-alpha (Homo sapiens) (UniProt P41235)
# Assay: change in binding of human HNF4A to DNA, primary screen, biochemical, fluorescence polarization, FITC-DNA (AID 1224865)
# Details: 1 h, at 10 µM, stronger effect = higher value
row,Structure (SMILES),activity change
1,O=C(NCC1(N2CCCCC2)CCCCC1)c1cc([N+](=O)[O-])ccc1Cl,inactive: -0.25%
2,CN1[C@@H]2CC[C@H]1CC(OC(=O)C(O)(c1ccccc1)c1ccccc1)C2 (stereo partly specified),inactive: 4.18%
3,CC(C)N1C(=O)CC2(CCN(CCOC(=O)C(O)(c3ccccc3)c3ccccc3)CC2)C1=O,inactive: 1.4%
4,COc1cc(SC)ccc1C(=O)NCC1(N(C)C)CCCCC1,inactive: -3.04%
5,CCN(CC)CC(C)C(C)OC(=O)C(O)(c1ccccc1)c1ccccc1 (stereo unspecified),inactive: -2.48%
6,Cc1ccc(C(=O)NCC2(N3CCCCC3)CCCCC2)cc1,inactive: 0.57%
7,CN(C)C1CCCC1OC(=O)C(O)(c1ccccc1)c1ccccc1 (stereo unspecified),inactive: -0.89%
8,CN(C)c1ccc(C(=O)NCC2(N(C)C)CCCCC2)cc1,inactive: -1.73%
9,Cc1ccccc1C(=O)NCC1(N2CCCCC2)CCCCC1,inactive: -0.34%
10,O=C(NCC1(N2CCCCC2)CCCCC1)c1cc(F)c(F)cc1Cl,inactive: 3.01%
11,C=CCN1CCN(CCOC(=O)C(O)(c2ccccc2)c2ccccc2)CC1,inactive: 0.67%
12,O=C(NCC1(N2CCCCC2)CCCCC1)c1cccc(Br)c1,inactive: -1.19%
13,Cc1cc(C(=O)NCC2(N3CCCCC3)CCCCC2)ccc1[N+](=O)[O-],inactive: -0.46%
14,CCN1CCCC(OC(=O)C2(O)c3ccccc3C=Cc3ccccc32)C1 (stereo unspecified),inactive: -2.43%
15,COc1ccc(C(=O)NCC2(N(C)C)CCCCC2)cc1,inactive: -0.32%
16,CN(C)C1(CNC(=O)c2ccc(Br)cc2)CCCCC1,inactive: -0.54%
17,COc1cc(C(=O)NCC2(N(C)C)CCCCC2)c([N+](=O)[O-])cc1OC,inactive: 0.92%
18,COc1ccc(Cl)cc1C(=O)NCC1(N(C)C)CCCCC1,inactive: 1.07%
19,COc1cccc(C(=O)NCC2(N3CCCCC3)CCCCC2)c1,inactive: 3.67%
20,O=C(NCC1(N2CCCCC2)CCCCC1)c1cccc(Cl)c1,inactive: 1.46%
21,O=C(OC1CN2CCC1CC2)C(CO)(c1ccccc1)c1ccccc1 (stereo unspecified),inactive: -1.29%
22,COc1ccc(Br)c(C(=O)NCC2(N3CCCCC3)CCCCC2)c1,inactive: 2.29%
23,C=C(C)C#CC(O)(C(=O)OC1CCN(C)CC1)c1ccccc1 (stereo unspecified),inactive: -2.81%
24,CN(C)c1cccc(C(=O)NCC2(N(C)C)CCCCC2)c1,inactive: -3.08%
25,O=C(OCCN1CCCC1)C(O)(c1ccccc1)c1ccccc1,inactive: -2.88%
26,CC(C)Oc1ccc(C(=O)NCC2(N(C)C)CCCCC2)cc1,inactive: -2.98%
